In PubChem BioAssay (NCI):
Some tests of the compounds listed are not included; inactive here does not mean inactive elsewhere.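 The compound was tested at five concentrations on cells cultured in 96-well plates, with a 48-hour exposure period. TGI marks complete inhibition of growth.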

Assays:
Experiment in all cases: DTP human tumour cell line panel, 48 h
786-0 renal = tested on: 786-0 renal
A498 renal = tested on: A498 renal
A549 NSCLC = tested on: A549 NSCLC
ACHN renal = tested on: ACHN renal
BT-549 breast = tested on: BT-549 breast
CAKI-1 renal = tested on: CAKI-1 renal
CCRF-CEM leukemia = tested on: CCRF-CEM leukemia
COLO 205 colon = tested on: COLO 205 colon
DU-145 prostate = tested on: DU-145 prostate
EKVX NSCLC = tested on: EKVX NSCLC
HCT-116 colon = tested on: HCT-116 colon
HCT-15 colon = tested on: HCT-15 colon
HL-60(TB) leukemia = tested on: HL-60(TB) leukemia
HOP-62 NSCLC = tested on: HOP-62 NSCLC
HOP-92 NSCLC = tested on: HOP-92 NSCLC
HS 578T breast = tested on: HS 578T breast
HT29 colon = tested on: HT29 colon
IGROV1 ovarian = tested on: IGROV1 ovarian
K-562 leukemia = tested on: K-562 leukemia
KM12 colon = tested on: KM12 colon
LOX IMVI melanoma = tested on: LOX IMVI melanoma
M14 melanoma = tested on: M14 melanoma
MALME-3M melanoma = tested on: MALME-3M melanoma
MCF7 breast = tested on: MCF7 breast
MDA-MB-231 breast = tested on: MDA-MB-231 breast
MDA-MB-435 = tested on: MDA-MB-435
MDA-N = tested on: MDA-N
MOLT-4 leukemia = tested on: MOLT-4 leukemia
NCI-H226 lung = tested on: NCI-H226 lung
NCI-H23 lung = tested on: NCI-H23 lung
NCI-H322M lung = tested on: NCI-H322M lung
NCI-H460 lung = tested on: NCI-H460 lung
NCI-H522 lung = tested on: NCI-H522 lung
NCI/ADR-RES ovarian = tested on: NCI/ADR-RES ovarian
OVCAR-3 ovarian = tested on: OVCAR-3 ovarian
OVCAR-4 ovarian = tested on: OVCAR-4 ovarian
OVCAR-5 ovarian = tested on: OVCAR-5 ovarian
OVCAR-8 ovarian = tested on: OVCAR-8 ovarian
PC-3 prostate = tested on: PC-3 prostate
RPMI-8226 leukemia = tested on: RPMI-8226 leukemia
RXF 393 renal = tested on: RXF 393 renal
SF-268 CNS = tested on: SF-268 CNS
SF-295 CNS = tested on: SF-295 CNS
SF-539 CNS = tested on: SF-539 CNS
SK-MEL-2 melanoma = tested on: SK-MEL-2 melanoma
SK-MEL-28 melanoma = tested on: SK-MEL-28 melanoma
SK-MEL-5 melanoma = tested on: SK-MEL-5 melanoma
SK-OV-3 ovarian = tested on: SK-OV-3 ovarian
SN12C renal = tested on: SN12C renal
SNB-19 CNS = tested on: SNB-19 CNS
SNB-75 CNS = tested on: SNB-75 CNS
SR leukemia = tested on: SR leukemia
SW-620 colon = tested on: SW-620 colon
T-47D breast = tested on: T-47D breast
TK-10 renal = tested on: TK-10 renal
U251 CNS = tested on: U251 CNS
UACC-257 melanoma = tested on: UACC-257 melanoma
UACC-62 melanoma = tested on: UACC-62 melanoma

Measured: TGI

CN1CCCC(OC(=O)C(O)(c2ccccc2)C2CCCC2)C1 (stereo not drawn)
> 100 µM: all assays above
